# A selection: hits, their analogues and other compounds. The true share with any hit is near 2.8%.
# PglD inh: inhibitors of Campylobacter jejuni PglD acetyltransferase | 0.098% of 360,000 active | purified PglD enzyme, DTNB colorimetric CoA detection | inhibition, % at 12.5 µM; in the data active means inhibition above about 16%, passing the limit was not always enough; inconclusive means no clear call, values can overlap the other calls
# MITF TRPM1 HTS: increases MITF-driven TRPM1 promoter luciferase signal; SK-MEL-5 TRPM1-promoter luciferase, 24 h; % of positive control, neutral wells = 0; activation, % at 12.5 µM; 0.75% of 300,000 active; AID 588334;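 active means mean activation of at least 80% with every replicate also reaching 80%; inconclusive means mean reaches 80% but some replicate falls short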;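 further: 0% = neutral control wells and 100% = parthenolide positive control wells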
# miR-122 sensor: inhibitors of miR-122 in Huh7 cells. activation (reporter increase), % at 12.5 µM. Huh7 miR-122 Renilla luciferase sensor, 48 h; neutral wells = 0, positive control = 100. AID 602342. 0.3% of 340,000 active;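 active means mean replicate activation score at least 90 and every replicate individually at or above 90; inconclusive means only one of the two criteria met; inactive means neither criterion met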;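 further: higher luciferase means less miR-122 activity so hits act as miR-122 inhibitors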
# Wnt act: activates Wnt/beta-catenin signaling in a reporter cell assay | activation, % at 9.35 µM | activator, plate reader | 1.2% of 300,000 active; in the data active means activation above about 30%, passing the limit was not always enough; inconclusive means no clear call, values can overlap the other calls;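 further: 0% = neutral control wells and 100% = positive control wells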
# Yeast UUG start: yeast start codon fidelity modulation | S. cerevisiae UUG-firefly luciferase reporter, luminescence/redox ratio | activity score, % at 18.7 µM | hit rate 0.13% among 350,000 | AID 602363;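 active means replicate mean at a twofold rise or more, about +100% in these data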;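 further: firefly luciferase made from a UUG start codon reports start codon fidelity; reporter light over untreated wells divided by growth signal over untreated wells; some hits fall short of that in this replicate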
# esBAF inh: inhibitors of esBAF chromatin remodeling in mouse ES cells. 2% of 350,000 active. AID 602393. reporter increase, % at 12.5 µM. Bmi1-luciferase knock-in reporter, 24 h; 100% = twice the neutral-well signal; in the data active means activation above about 40%; inconclusive means no clear call, values can overlap the other calls;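 further: 0% = median of the plate's neutral control wells and 100% = double that signal; a rise in the Bmi1 reporter signal indicates esBAF inhibition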
# The depositor's hits bear a star; u = inconclusive; x = no result given; [ ] = another dose, or the depositor's remark.
item	PglD inh	MITF TRPM1 HTS	miR-122 sensor	Wnt act	Yeast UUG start	esBAF inh	compound
1	2	x	-9[16.7 µM]	x	-1	3	NCC[C@H]1CC[C@H](NS(=O)(=O)Cc2ccccc2)[C@H](CO)O1
2	3	39	20	18	-13	66*	O=C(Nc1ccc(F)c(F)c1)NC1CCCCC1
3	-1	-8	-1	5	-4	4	Nc1ccc(NC(=O)NC2CCCCC2)cc1
4	-1	74	-7	u	-2	68*	CC(=O)c1ccc(NC(=O)NC2CCCCCCC2)cc1
5	-2	105*	4	12	-4	59*	O=C(Nc1ccc(F)cc1)NC1CCCCCCC1
6	-3	70	1	x	-26	60*	O=C(Nc1ccc2nsnc2c1)NC1CCCCC1
7	x	x	x	x	x	-6	CO[C@H]1CN(C)C(=O)c2cc(NC(C)=O)ccc2OC[C@@H](C)N(C(=O)c2cnccn2)C[C@@H]1C
8	-2	x	-1[16.7 µM]	x	-2	-4	COCC(=O)N(C)C[C@@H]1Oc2cc(-c3cccnc3)ccc2S(=O)(=O)N([C@H](C)CO)C[C@H]1C
9	-1	x	2[16.7 µM]	x	18	0	Cc1noc(C)c1NC(=O)Nc1ccc2c(c1)C(=O)N([C@H](C)CO)C[C@@H](C)[C@H](CN(C)CC1CCCCC1)OCCCC[C@@H](C)O2
10	-3	x	12[16.7 µM]	x	21	-2	C[C@H](CO)N1C[C@H](C)[C@H](CN(C)S(=O)(=O)c2cn(C)cn2)OCCCC[C@H](C)Oc2ccc(NS(=O)(=O)c3cn(C)cn3)cc2C1=O
11	-6	u	16	66*	0	x	O=C(Nc1ccc(Cl)cc1)NC1CCCCC1
12	0	18	4	3	-2	29	Cc1cccc(NC(=O)NC2CCCCCCC2)c1C
13	6	58	3	17	3	54*	O=C(Nc1ccccc1F)NC1CCCCCCC1
14	3	7	77	15	-32	57*	S=C(Nc1cccc2ccccc12)NC1CCCCC1
15	2	10	157*	-1	-23	2	Cc1c(NC(=O)NC2CCCCC2)cccc1[N+](=O)[O-]
16	6	15	0	x	-4	u	O=C(Nc1ccccc1F)NC1CC1
17	-2	x	-8[16.7 µM]	x	2	0	C[C@H]1CCCCO[C@H](CN(C)C(=O)Nc2ccc(C(F)(F)F)cc2)[C@@H](C)CN([C@@H](C)CO)C(=O)c2cc(N(C)C)ccc2O1
18	2	x	-4[16.7 µM]	x	-6	-5	C[C@@H]1CCCCO[C@@H](CN(C)C(=O)Cc2ccccc2)[C@@H](C)CN([C@H](C)CO)C(=O)c2cc(NC(=O)c3ccccc3)ccc2O1
19	x	106*	x	x	x	x	COc1ccc(N/C=C/C(=O)c2ccc(Cl)cc2)cc1
20	-2	x	0	1	-18	46*	COc1ccc(C(=O)c2ccc(Cl)cc2)cc1

# Brought forward from above: 4 entries, followed by the next part.
item	PglD inh	MITF TRPM1 HTS	miR-122 sensor	Wnt act	Yeast UUG start	esBAF inh	compound
17	-2	x	-8[16.7 µM]	x	2	0	C[C@H]1CCCCO[C@H](CN(C)C(=O)Nc2ccc(C(F)(F)F)cc2)[C@@H](C)CN([C@@H](C)CO)C(=O)c2cc(N(C)C)ccc2O1
18	2	x	-4[16.7 µM]	x	-6	-5	C[C@@H]1CCCCO[C@@H](CN(C)C(=O)Cc2ccccc2)[C@@H](C)CN([C@H](C)CO)C(=O)c2cc(NC(=O)c3ccccc3)ccc2O1
19	x	106*	x	x	x	x	COc1ccc(N/C=C/C(=O)c2ccc(Cl)cc2)cc1
20	-2	x	0	1	-18	46*	COc1ccc(C(=O)c2ccc(Cl)cc2)cc1
21	2	x	8[16.7 µM]	x	x	2	CC=Cc1ccc2n(c1=O)C[C@@H]1[C@@H](CO)[C@H](C(=O)NCCC)[C@H]2N1Cc1cccnc1 (mixture of isomers)
22	1	54	0	19	-14	53*	O=C(CNC(=O)c1ccc(F)cc1)c1ccc(Cl)cc1
23	-1	74	-1	39*	-16	55*	CC(C)C1COC(c2cccc3ccccc23)=N1 (centres undefined)
24	24	x	0[16.7 µM]	x	2	0	C[C@H]1CN([C@@H](C)CO)C(=O)c2cc(NC(=O)Cn3cnnn3)ccc2O[C@@H]1CN(C)C
25	2	-4	9	34*	-2	x	CCOC(=O)N1N=C(CC)CC1(O)C(F)(F)F (centres undefined)
26	x	-6	105*	x	x	0	Cc1cc(C)cc(NS(=O)(=O)c2ccc3oc(=O)ccc3c2)c1
27	x	-12	118*	x	x	x	CCOc1cc(S(=O)(=O)Nc2cc(C)cc(C)c2)ccc1Cl
28	-4	-8	29	-2	-9	3	Cc1ccc(C)c(NS(=O)(=O)c2ccc3oc(=O)ccc3c2)c1
29	1	x	-2[16.7 µM]	x	5	-3	C[C@@H]1CN([C@H](C)CO)C(=O)c2cc(NC(=O)Nc3ccccc3)ccc2O[C@@H](C)CCCCO[C@@H]1CN(C)Cc1ccc(C(F)(F)F)cc1
30	1	x	-10[16.7 µM]	x	-8	-1	Cc1noc(C)c1NC(=O)N(C)C[C@H]1OCCCC[C@@H](C)Oc2ccc(NS(=O)(=O)c3cn(C)cn3)cc2C(=O)N([C@@H](C)CO)C[C@@H]1C

# Screening results: PubChem BioAssay, Broad Institute
